Yeast mating assay 2: variants of the scFv Ab-95

From the AlphaSeq antibody data of Engelhart et al. 2022 (doi:10.1038/s41597-022-01779-4), copy in the FLAb collection.

Target peptide (SARS-CoV-2 spike, HR2 region): PDVDLGDISGINAS

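Variants in AAYL52 differ from the parent at up to three CDR positions; double and triple changes were sampled at random. The assay is AlphaSeq: two haploid yeast populations carry antibody and antigen on their surface. Binding brings cells together so that they mate, and sequencing counts the barcode pairs among the diploids. Read counts were normalised to the haploid input and turned into Kd by a linear fit to BCL2-family pairs of known affinity, for each replicate. There are three technical replicates.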

Parent: Ab-95, a human scFv built as VH, the linker GGGGSGGGGSGGGGS, VL. Only the CDRs of the light chain vary.
VH: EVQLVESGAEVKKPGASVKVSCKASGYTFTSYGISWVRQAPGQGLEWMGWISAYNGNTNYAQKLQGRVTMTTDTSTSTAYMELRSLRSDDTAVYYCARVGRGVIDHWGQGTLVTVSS
VL: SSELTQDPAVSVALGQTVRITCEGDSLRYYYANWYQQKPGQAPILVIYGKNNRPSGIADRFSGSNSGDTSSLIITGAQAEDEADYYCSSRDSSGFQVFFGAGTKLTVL

Substitutions are numbered in sequence along the VL above, starting at 1 (not Kabat).
All variants listed here change G94 of the VL, counted from its first residue.
Scale: log10 of Kd in nM, estimated from mating counts; low values are strong binders.
Where no diploid with the target was found in that replicate, the entry reads "ND": below detection, most likely a poor binder, though not proof of it.

With D91K S92D G94W the result was 2.43, 2.79, 1.99.
With S26Y Y29F G94Q the result was ND, 5.64, ND.
With R28C Y31G G94Q the result was 2.75, 2.43, 1.77.
With D25C S88I G94I the result was ND, ND, ND.
With S92N G94S V97E the result was ND, ND, ND.
With Y30Q S92D G94R the result was 1.53, 1.10, 0.46.
With Y31L G94P F95S the result was 3.93, 3.03, ND.
With G94M V97Q the result was ND, ND, ND.
With Y30N G94W F95E the result was 3.64, 4.16, 4.54.
With Y29K N52A G94A the result was 3.99, ND, ND.
With R28C Y31L G94F the result was 4.14, 4.57, 2.97.
With L27D Y29H G94W the result was ND, ND, ND.
With D25K G94M F95L the result was 4.00, ND, 3.09.
With N33P S55R G94P the result was ND, 5.73, ND.
With S89A G94K the result was 3.37, ND, ND.
With R28G S88L G94M the result was 1.98, 1.65, 1.27.
With Y29H G94L F98A the result was 4.05, 4.35, 2.11.
With S88G G94L V97L the result was ND, ND, ND.
With S55R D91H G94F the result was 3.01, 2.86, 4.35.
With G24P D91Q G94N the result was ND, ND, 4.90.
With K50I N51V G94M the result was 5.30, ND, 4.30.
With G24L L27C G94V the result was ND, 4.34, ND.
With D25I G94P V97A the result was 2.82, 2.48, 3.09.
With R53E G94Q the result was ND, ND, ND.
With G94C the result was 2.46, 2.22, 1.87.
With N52P P54E G94I the result was ND, ND, ND.
With N52C S88P G94N the result was ND, ND, ND.
With S88H G94H Q96F the result was 2.09, 3.07, 1.81.
With G24A G94F the result was 2.79, 3.05, 3.30.
With P54Q G94T the result was 2.92, 2.73, ND.
With N33F K50S G94T the result was 3.93, 3.76, ND.
With G49C G94T V97C the result was ND, ND, ND.
With Y29A S89E G94I the result was 2.61, 3.19, 3.48.
With D91F S92I G94L the result was 2.78, 2.76, 2.72.
With A32G S93W G94P the result was 3.54, 3.07, 4.16.
With R90H G94R V97E the result was 2.53, 3.70, 1.23.
With Y29D G94K Q96N the result was 2.23, 1.79, 1.95.
With Y29F G94Y F95T the result was 2.75, 3.06, 2.36.
With Y29Q N51H G94I the result was 3.62, 3.90, 3.07.

4 of these entries, quoted again:

| changes | replicates, log10 nM |
|---|---|
| N33F K50S G94T | 3.93, 3.76, ND |
| S92N G94S V97E | ND, ND, ND |
| Y31L G94P F95S | 3.93, 3.03, ND |
| S26Y Y29F G94Q | ND, 5.64, ND |

As a blank, each scFv also met three strains without target: over library AAYL52, 28% of these pairings were detected, typically at 3.91 and seldom below 2.90.